Reference: patent publication US20220016215A1, “GIP RECEPTOR AGONIST PEPTIDE COMPOUNDS AND USES THEREOF” (TAKEDA PHAARMACEUTICAL COMPANY LIMITED, priority 2018, published 2022)

The chains behind the UniProt entries cited, without tags or fusion partners. Residues count along the entry.
UniProt P43220, 24-463: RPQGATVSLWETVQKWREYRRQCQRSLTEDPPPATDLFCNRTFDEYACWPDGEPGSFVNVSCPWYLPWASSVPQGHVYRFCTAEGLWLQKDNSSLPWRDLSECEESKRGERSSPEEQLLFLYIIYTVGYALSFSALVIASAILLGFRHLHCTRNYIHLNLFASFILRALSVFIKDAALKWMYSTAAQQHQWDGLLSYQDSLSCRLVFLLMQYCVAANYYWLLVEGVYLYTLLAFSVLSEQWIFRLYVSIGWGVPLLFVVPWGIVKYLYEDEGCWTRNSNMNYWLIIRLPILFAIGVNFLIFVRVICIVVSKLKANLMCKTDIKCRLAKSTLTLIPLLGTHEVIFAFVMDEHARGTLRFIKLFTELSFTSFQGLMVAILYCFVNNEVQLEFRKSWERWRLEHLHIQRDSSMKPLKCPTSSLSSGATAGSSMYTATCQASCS

Assays:
human GIPR = target: T1, human GIPR (Homo sapiens, UniProt P48546); assay: Agonist activity on human GIPR, CRE-luciferase reporter assay (increase in intracellular cAMP as indicator); format: cell-based; settings: for Selectivity Ratio (B/A): GLP1R EC50 / GIPR EC50; for EC50: hGIPR/CRE-LUC/CHO-K1 cells, 4 h incubation
T1 construct: expressed in transfected cells
T1 sequence (P48546 22-466): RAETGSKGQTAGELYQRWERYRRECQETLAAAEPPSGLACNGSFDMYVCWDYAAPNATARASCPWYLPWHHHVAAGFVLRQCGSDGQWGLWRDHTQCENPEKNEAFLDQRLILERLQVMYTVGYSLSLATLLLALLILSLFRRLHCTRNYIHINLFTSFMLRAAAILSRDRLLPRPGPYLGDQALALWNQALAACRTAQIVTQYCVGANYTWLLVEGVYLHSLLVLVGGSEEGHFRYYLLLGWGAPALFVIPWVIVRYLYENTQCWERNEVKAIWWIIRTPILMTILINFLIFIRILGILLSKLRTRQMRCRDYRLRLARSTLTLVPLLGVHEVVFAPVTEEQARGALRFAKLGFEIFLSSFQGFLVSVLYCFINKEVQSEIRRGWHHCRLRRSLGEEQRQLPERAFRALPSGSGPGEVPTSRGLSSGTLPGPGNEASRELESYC

[1] = tested on: morphine (0.6 mg/kg, s.c.)-induced emesis in ferrets; assay: Morphine-induced acute emetic model in male ferrets; settings: for Comment: Anti-Emetic Activity (inhibition) on morphine-induced emesis: summary of the morphine experiments
human GLP-1R = human GLP-1R (Homo sapiens, UniProt P43220); assay: Agonist activity on human GLP-1R, CRE-luciferase reporter assay (increase in intracellular cAMP as indicator); format: cell-based; parameters: expressed in transfected cells; settings: hGLP-1R/CRE-luc/CHO-K1 cells, 4 h incubation; read-out: GLP1R EC50 nM (B)
[2] = read-out: GIPR pEC50 (converted)
[3] = male ferrets, 30 nmol/kg s.c., morphine 0.6 mg/kg s.c. 4 hours after administration
[4] = ferrets, morphine 0.6 mg/kg s.c. 0.5 h after drug, 106-151 μg/kg s.c. (30 nmol/kg)
[5] = ferrets, morphine 0.6 mg/kg s.c. 0.5 h after drug, 106-151 μg/kg s.c. (30 nmol/kg), non-responders counted as 30 min

Q: For `CCCCCCCCCCCCCCCC(=O)N[C@@H](CCC(=O)NCCCC[C@H](NC(=O)[C@H](CCCCN)NC(=O)[C@H](CC(=O)O)NC(=O)[C@H](CCSC)NC(=O)[C@H](C)NC(=O)[C@@H](NC(=O)[C@H](CO)NC(=O)[C@H](Cc1ccc(O)cc1)NC(=O)[C@H](CC(=O)O)NC(=O)[C@H](CO)NC(=O)[C@@H](NC(=O)[C@H](Cc1ccccc1)NC(=O)[C@@H](NC(=O)CNC(=O)[C@H](CCC(=O)O)NC(=O)C(C)(C)NC(=O)[C@@H](N)Cc1ccc(O)cc1)[C@@H](C)O)[C@@H](C)CC)[C@@H](C)CC)C(=O)N[C@@H](Cc1c[nH]cn1)C(=O)N[C@@H](CCC(N)=O)C(=O)N[C@@H](CCC(N)=O)C(=O)N[C@@H](CC(=O)O)C(=O)N[C@@H](Cc1ccccc1)C(=O)N[C@H](C(=O)N[C@@H](CC(N)=O)C(=O)N[C@@H](Cc1c[nH]c2ccccc12)C(=O)N[C@@H](CC(C)C)C(=O)N[C@@H](CC(C)C)C(=O)N[C@@H](C)C(=O)N[C@@H](CCC(N)=O)C(=O)N[C@@H](CCCCN)C(=O)NCC(=O)N[C@@H](CCCCN)C(=O)N[C@@H](CCCCN)C(=O)N[C@@H](CC(N)=O)C(=O)N[C@@H](CC(=O)O)C(=O)N[C@@H](Cc1c[nH]c2ccccc12)C(=O)N[C@@H](CCCCN)C(=O)N[C@@H](Cc1c[nH]cn1)C(=O)N[C@@H](CC(N)=O)C(=O)N[C@H](C(=O)N[C@H](C(=O)N[C@@H](CCC(N)=O)C(=O)O)[C@@H](C)CC)[C@@H](C)CC)C(C)C)C(=O)O` [Compound 5], which “Selectivity Ratio (B/A)” value (human GIPR) is on record?
A: 93,300

Q: What about the EC50 (human GIPR; read-out: GIPR EC50 nM (A)) of the same compound?
A: 0.001 nM

Q: What about the EC50 (human GIPR; [2]) of the same compound?
A: 0.00126 nM

Q: What about the “Ferrets in which the vomiting symptom was observed (in words)” value ([1]; ferrets, morphine administered 4 hours after administration) of the same compound?
A: none of the three ferrets

Q: What about the Duration of emesis [1, 3] of the same compound?
A: 0.0 ± 0.0 min

Q: And the Emetic episodes [1, 3]?
A: 0.0 ± 0.0

Q: And the Latency period [1, 3]?
A: 30.0 ± 0.0 min

Q: And the “No. of animals that did not vomit” value [1, 3]?
A: 3

Q: What about the “Emetic episodes, % Inhibition of mean value” ([1]; male ferrets, 30 nmol/kg s.c., morphine 0.6 mg/kg s.c. 4 hours after administration, vs vehicle) of the same compound?
A: [100%]

Q: And the “Comment: Anti-Emetic Activity (inhibition) on morphine-induced emesis” value ([1]; male ferrets)?
A: 100% inhibition

Q: `CCCC[C@H](NC(=O)C(C)(C)NC(=O)[C@@H](NC(=O)[C@H](CO)NC(=O)[C@H](Cc1ccc(O)cc1)NC(=O)[C@H](CC(=O)O)NC(=O)[C@H](CO)NC(=O)[C@@H](NC(=O)[C@H](Cc1ccccc1)NC(=O)[C@@H](NC(=O)CNC(=O)[C@H](CCC(=O)O)NC(=O)C(C)(C)NC(=O)[C@@H](N)Cc1cc(Br)c(O)c(Br)c1)[C@@H](C)O)[C@@H](C)CC)[C@@H](C)CC)C(=O)N[C@@H](CC(=O)O)C(=O)N[C@@H](CCCCN)C(=O)N[C@H](C(=O)N[C@@H](Cc1c[nH]cn1)C(=O)N[C@@H](CCC(N)=O)C(=O)N[C@@H](CCC(N)=O)C(=O)N[C@@H](CC(=O)O)C(=O)N[C@@H](Cc1ccccc1)C(=O)N[C@H](C(=O)N[C@@H](CC(N)=O)C(=O)N[C@@H](Cc1c[nH]c2ccccc12)C(=O)N[C@@H](CC(C)C)C(=O)N[C@@H](CC(C)C)C(=O)N[C@@H](C)C(=O)N[C@@H](CCC(N)=O)C(=O)N[C@@H](CCCCN)C(=O)NCC(=O)N[C@@H](CCCCN)C(=O)N[C@@H](CCCCN)C(=O)N[C@@H](CC(N)=O)C(=O)N[C@@H](CC(=O)O)C(=O)N[C@@H](Cc1c[nH]c2ccccc12)C(=O)N[C@@H](CCCCN)C(=O)N[C@@H](Cc1c[nH]cn1)C(=O)N[C@@H](CC(N)=O)C(=O)N[C@H](C(=O)N[C@H](C(=O)N[C@@H](CCC(N)=O)C(=O)O)[C@@H](C)O)[C@@H](C)CC)C(C)C)[C@@H](C)CC` [Compound 8] was tested. Which EC50 (human GLP-1R) did it give?
A: 117 nM

Q: What about the “Selectivity Ratio (B/A)” value (human GIPR) of the same compound?
A: 5,595

Q: Which results are given for `CCCC[C@H](NC(=O)[C@H](C)NC(=O)[C@@H](NC(=O)C1(NC(=O)[C@H](Cc2ccc(O)cc2)NC(=O)[C@H](CC(=O)O)NC(=O)[C@H](CO)NC(=O)[C@@H](NC(=O)[C@H](Cc2ccccc2)NC(=O)[C@@H](NC(=O)CNC(=O)[C@H](CCC(=O)O)NC(=O)C(C)(C)NC(=O)[C@@H](N)Cc2ccccc2)[C@@H](C)O)[C@@H](C)CC)CCCC1)[C@@H](C)CC)C(=O)N[C@@H](CC(=O)O)C(=O)N[C@@H](CCCCN)C(=O)N[C@H](C(=O)N[C@@H](Cc1c[nH]cn1)C(=O)N[C@@H](CCC(N)=O)C(=O)N[C@@H](CCC(N)=O)C(=O)N[C@@H](CC(=O)O)C(=O)N[C@@H](Cc1ccccc1)C(=O)N[C@H](C(=O)N[C@@H](CC(N)=O)C(=O)N[C@@H](Cc1c[nH]c2ccccc12)C(=O)N[C@@H](CC(C)C)C(=O)N[C@@H](CC(C)C)C(=O)N[C@@H](C)C(=O)N[C@@H](CCC(N)=O)C(=O)N[C@@H](CCCCN)C(=O)NCC(=O)N[C@@H](CCCCN)C(=O)N[C@@H](CCCCN)C(=O)N[C@@H](CC(N)=O)C(=O)N[C@@H](CC(=O)O)C(=O)N[C@@H](Cc1c[nH]c2ccccc12)C(=O)N[C@@H](CCCCN)C(=O)N[C@@H](Cc1c[nH]cn1)C(=O)N[C@@H](CC(N)=O)C(=O)N[C@H](C(=O)N[C@H](C(=O)N[C@@H](CCC(N)=O)C(=O)O)[C@@H](C)O)[C@@H](C)CC)C(C)C)[C@@H](C)CC` [Compound 9]?
A: EC50 (human GLP-1R): > 1000 nM; Selectivity Ratio (B/A) (human GIPR): >100,000; EC50 (human GIPR; [2]): 0.00398 nM; Emesis: Duration [1, 4]: 0.0 ± 0.0 min; Emesis: Frequency [1, 4]: 0.0 ± 0.0; Emesis: No. of animals (responder/used) [1, 4]: 0/4 #; Fidget: Duration [1, 4]: 0.0 ± 0.0 min; Fidget: Frequency [1, 4]: 0.0 ± 0.0; Fidget: No. of animals (responder/used) [1, 4]: 0/4; Licking: Duration [1, 4]: 0.0 ± 0.0 min; Licking: Frequency [1, 4]: 0.0 ± 0.0; Licking: No. of animals (responder/used) [1, 4]: 0/4 #; Retching: Duration [1, 4]: 0.0 ± 0.0 min; Retching: Frequency [1, 4]: 0.0 ± 0.0; Retching: No. of animals (responder/used) [1, 4]: 0/4 #; Vomiting: Duration [1, 4]: 0.0 ± 0.0 min; Vomiting: Frequency [1, 4]: 0.0 ± 0.0; Vomiting: No. of animals (responder/used) [1, 4]: 0/4; Emesis: Latency [1, 5]: 30.0 ± 0.0 min; Fidget: Latency [1, 5]: 30.0 ± 0.0 min; Licking: Latency [1, 5]: 30.0 ± 0.0 min; Retching: Latency [1, 5]: 30.0 ± 0.0 min; Vomiting: Latency [1, 5]: 30.0 ± 0.0 min; Attenuation of morphine-induced emesis (in words) ([1]; male ferrets, 30 nmol/kg s.c. 30 minutes before morphine 0.6 mg/kg s.c.): completely attenuated; Comment: Anti-Emetic Activity (inhibition) on morphine-induced emesis ([1]; male ferrets): 100% inhibition

Read-outs that look alike come from different tables or passages of the source. Marks after values point to notes of the source that are not given here.
